Patent publication US20130022673A1, “ENHANCEMENT OF MAGNESIUM UPTAKE IN MAMMALS” (priority 2003, published 2013)

choline citrate
change in magnesium level (in words) (30 day period, no magnesium supplementation): modest but statistically insignificant increase | effect on ionized magnesium levels (in words) (choline citrate alone): does not substantially raise
